Publication PMC4128710 (Biochemical pharmacology, 2014)

Experiments:
A2BAR [1] = biological target: T1, A2BAR (Homo sapiens, UniProt P29275); assay: Intracellular calcium mobilization in T24 cells; settings: T-24, read-out: Max effect Calcium (% of effect of NECA)
T1 sequence (P29275 1-332): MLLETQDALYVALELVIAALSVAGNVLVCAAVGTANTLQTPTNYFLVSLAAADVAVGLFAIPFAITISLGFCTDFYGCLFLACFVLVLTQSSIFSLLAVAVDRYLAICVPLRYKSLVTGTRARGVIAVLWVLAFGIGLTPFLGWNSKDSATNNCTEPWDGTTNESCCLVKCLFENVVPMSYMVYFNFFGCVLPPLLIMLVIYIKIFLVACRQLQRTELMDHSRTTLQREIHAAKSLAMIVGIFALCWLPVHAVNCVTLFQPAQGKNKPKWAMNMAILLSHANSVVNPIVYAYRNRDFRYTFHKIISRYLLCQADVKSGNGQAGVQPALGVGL

A2BAR [2] = biological target: T1, A2BAR; assay: cAMP accumulation in T24 cells endogenously expressing the A2BAR; settings: T-24, read-out: Max effect cAMP (% of effect of NECA)
A2BAR [3] = biological target: T1, A2BAR; assay: Intracellular calcium mobilization in HEK293 cells overexpressing the A2BAR; settings: HEK293, read-out: Max effect Calcium (% of effect of NECA)

Emax (A2BAR [1]): -0.5 ± 1.7%
Emax (A2BAR [2]): 82 ± 5.9%
Emax (A2BAR [3]): -7.7 ± 3.2%
Compound: Nc1nc(OCCc2c[nH]c3ccccc23)nc2c1ncn2[C@@H]1O[C@H](CO)[C@@H](O)[C@H]1O [MRS3534, 2-(2-(indol-3-yl)ethyloxy)adenosine]
